Experimental findings from patent US5075338A (priority 1986, dated 1991) are described below.

A short description of this data set: acute toxicity (on rats). Conditions: rat.

In general, LD50 refers to the dose at which mortality reaches 50%. Low values mean a more toxic substance, high ones a less toxic substance. With `CC(Cc1ccccc1)NCCBr` (centres unmarked), under “at the dose printed as LD50 bound”, the “percentage printed in parentheses beside the s.c. LD50” value is recorded as 0%. Further, the LD50 (s.c.) was over 200 mg/kg.
